Earlier results in publication PMC10673624 (Current research in chemical biology, 2023).

Chains of the proteins cited; added tags and fusions are not shown. Lines headed by an entry give the natural chain unless they say otherwise; changes in a name come on top.
UniProt P49761: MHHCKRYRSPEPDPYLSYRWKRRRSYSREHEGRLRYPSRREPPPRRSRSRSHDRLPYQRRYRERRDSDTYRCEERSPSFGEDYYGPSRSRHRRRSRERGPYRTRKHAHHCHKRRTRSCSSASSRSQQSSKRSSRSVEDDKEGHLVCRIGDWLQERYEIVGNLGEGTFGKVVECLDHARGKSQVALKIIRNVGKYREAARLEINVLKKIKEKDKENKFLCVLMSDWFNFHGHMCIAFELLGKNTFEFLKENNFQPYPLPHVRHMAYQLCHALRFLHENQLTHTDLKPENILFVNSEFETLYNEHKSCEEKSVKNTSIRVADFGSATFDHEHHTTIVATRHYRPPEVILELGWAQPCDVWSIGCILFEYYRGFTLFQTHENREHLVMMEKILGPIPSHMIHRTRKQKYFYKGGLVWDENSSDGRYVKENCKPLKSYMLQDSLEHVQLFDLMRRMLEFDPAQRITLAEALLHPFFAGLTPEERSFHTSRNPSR

Target: CLK3 (Homo sapiens, UniProt P49761)
Details: read-out: CLK Activities (IC50 nM), ref Nemec et al., 2019; cited from earlier work

Cn1cc(-c2ccc3occ(-c4cccc(-c5ccncc5)c4)c3n2)cn1 [Compound 1]
IC50: 12 nM
